Measured values: PMC12643529 (ACS Infectious Diseases, 2025)

What was measured:
[1] = system: bloodstream form of T. brucei; assay: alamarBlue (resazurin) antitrypanosomal assay; type: cell-based, Trypanosoma brucei; details: SI = IC50 MRC-5/IC50 T. brucei (resazurin assay)
[2] = system: promastigote form of L. major; assay: MTT-based antileishmanial assay, promastigotes; type: cell-based, Leishmania major; details: SI = IC50 MRC-5/IC50 L. major promastigotes
Protocol: The antileishmanial activity of the compounds against the promastigote form of L. major, the […] was determined using an MTT-based assay (Sigma-Aldrich). Stock solutions of the compounds were prepared in DMSO with the final DMSO percentage in each well maintained below 1%. 4 × 10^6 parasites per mL were incubated at 28 °C in 96-well plates (50 μL/well) either alone or in the presence of increasing concentrations of compounds DMSO for 72 h. After the incubation period, 10 μL of MTT (5 mg/mL) was added to each well, and the parasites were incubated for 4 h at 28 °C. Subsequently, cell lysis was performed using 50 μL/well of 20% SDS. […] Data were presented as the average of at least three independent measurements, each conducted under triplicate conditions. […] “single marker” […] S7

BSF T. brucei parasites = assay: CellTiter-Glo luminescent cell viability assay; type: cell-based, Trypanosoma brucei; details: SI = IC50 MRC-5/IC50 T. brucei

With `Cc1ccc2c(c1)sc(-c1ccc(N(C)C)cc1)[n+]2C` [ThT, Thioflavin T] the “selectivity index (SI) T. brucei” value [1] was 38.9, the “selectivity index (SI) L. major” value [2] was 7.9 and the “selectivity index (SI) T. brucei (CellTiter-Glo)” value (BSF T. brucei parasites) was 2.95.
